Measurements as given in patent publication US8394408B2, “Gastric retentive extended-release dosage forms comprising combinations of a non-opioid analgesic and an opioid analgesic” (Depomed, Inc., priority 2008, dated 2013).

Test: Oxycodone degradation (DHOXY/OXY), effect of antioxidants, 40° C., 75% RH open dish 8 days
Assay type: physicochemical
Details: ER single layer tablets, HPC binder

| Structure (SMILES) | Effect of antioxidant on degradation of oxycodone |
| --- | --- |
| O=C(O)CC(O)(CC(=O)O)C(=O)O | reduce the degradation of oxycodone |
| O=S([O-])S(=O)(=O)[O-].[Na+].[Na+] | reduce the degradation of oxycodone |
